Experimental findings from patent US10406264B2, “Peptide having titanium-binding ability” (NANO INTELLIGENT BIOMEDICAL ENGINEERING CORPORATION. CO. LTD, priority 2016, dated 2019) are described below.

Holding throughout (assay type): cell-based
Series [1] concerns periodontal ligament stem cells (PDLSCs). Description: mineralization of periodontal ligament stem cells (Alizarin red S) on coated titanium discs. To be noted: day 18; significant p<0.05, not significant p>0.05. Here is the method: In order to examine the osteogenic differentiation-inducting activity and loading of a titanium binding peptide-linked osteogenic peptide (SEQ ID NO: 3 or SEQ ID NO: 4) when being administered once, mineralization of periodontal ligament stem cells (PDLSCs) by the peptide was evaluated. Specifically, one titanium disc was placed in each well of a 24-well low-attachment polystyrene plate and blocked with a blocking solution (0.1 M NaHCO3 (pH 8.6), 5 mg/ml BSA, 0.02% NaN3 (optional), filter sterilize) for at least 1 hour. Next, the blocking solution was discarded, and each well was washed three times or more with a washing solution (DPBS: Dulbeccos phosphate buffered saline), after which 50 μl of the solution shown in Table 2 of Example 5 was dispensed and coated on the surface of each titanium disc. Each well was incubated at room temperature for 15 hours, and then washed three times or more with a washing solution (DPBS). […]
For 18 days after the first coating of the disc surface, the cells were cultured while replacing the medium without adding a solution containing the physiologically active substance. […] Then, the cells were incubated with 10% cetylpyridinium chloride (Sigma-Aldrich, USA) at room temperature for 2 hours, and the absorbance at 570 nm was measured.

Series [2] shares this test system. Description: ALP activity in periodontal ligament stem cells on coated titanium discs. How it is done:
In order to examine the osteogenic differentiation-inducting activity and loading of a titanium binding peptide-linked osteogenic peptide (SEQ ID NO: 3 or SEQ ID NO: 4) and a titanium-binding peptide (SEQ ID NO: 1) when these peptides are administered once, evaluation of ALP activity in periodontal ligament stem cells (PDLSCs) was performed. Specifically, one titanium disc was placed in each well of a 24-well low-attachment polystyrene plate and blocked with a blocking solution (0.1 M NaHCO3 (pH 8.6), 5 mg/ml BSA, 0.02% NaN3 (optional), filter sterilize) for at least 1 hour. Next, the blocking was discarded, and each well was washed three times or more with a washing solution solution (DPBS: Dulbeccos phosphate buffered saline), after which 50 μl of the solution shown in Table 2 of Example 5 was dispensed and coated on the surface of each titanium disc. Each well was incubated at room temperature for 15 hours, and then washed three times or more with a washing solution (DPBS). […]
For 18 days after the first coating of the disc surface, the cells were cultured while replacing the medium without adding a solution containing the physiologically active substance. On day 0, 6, 10, 13 and 18 of culture, cultured media were recovered, and ALP activity was measured using an alkaline phosphatase assay kit (cat#.ab83369, abcam, USA).

In series [3] the test system is PDLSC cells. Description: cell viability test (trypan blue count) on peptide-coated titanium discs. To be noted: disc coated per Table 2 (peptides 100 μM, BMP-2 100 ng/ml). Here is the method: In order to evaluate whether or not a titanium binding peptide-linked osteogenic peptide (SEQ ID NO: 3 or SEQ ID NO: 4) and a titanium-binding peptide (SEQ ID NO: 1) are cytotoxic when these peptides are administered alone, a cell viability test was performed.
Specifically, one titanium disc was placed in each well of a 24-well low-attachment polystyrene plate and blocked with a blocking solution (0.1 M NaHCO3 (pH 8.6), 5 mg/ml BSA, 0.02% NaN3 (optional), filter sterilize) for at least 1 hour. Next, the blocking solution was discarded, and each well was washed three times or more with a washing solution (DPBS: Dulbeccos phosphate buffered saline), after which 50 μl of the solution shown in Table 2 below was dispensed and coated on the surface of each titanium disc. Each well was incubated at room temperature for 15 hours, and then washed three times or more with a washing solution (DPBS). Next, 3×10^4 PDLSC cells suspended in 50 μl of a medium (Minimum Essential Medium Eagle Alpha Modifications, Hyclone, USA) containing 10% FBS (Fetal Bovine Serum) and 1% antibiotic-antimycotic solution (Thermo Fisher Scientific, USA) were dispensed per titanium disc. […] Next, the cells were detached, stained with trypan blue, and counted with a hematocytometer to determine the number of viable cells.

As to “BMP-2: bone morphogenetic protein, control, 100 ng/ml”, the “mineralization (absorbance at 570 nm), difference versus NT (negative control) group” value in series [1] is “no statistically significant difference”. For the same substance, the “ALP activity on day 10 of culture, difference versus NT (negative control) group” value in series [2] (day 10, FIG. 7, significant p<0.05, not significant p>0.05) is given as “no statistically significant difference”. The “change in ALP activity during 18 days of culture” value in series [2] (single coating, days 0, 6, 10, 13, 18, FIG. 6) is “significant change in ALP activity was not observed”. The “Total cell number (viable cells), Average” value in series [3] (average of #1 and #2, 3 days culture) is reported as 6.0 × 10^4. Also, in series [3] (replicate #1, 3 days culture), the “Total cell number (viable cells), #1” value is 4.5 × 10^4. Further, the “Total cell number (viable cells), #2” value in series [3] (replicate #2, 3 days culture) is on record as 7.5 × 10^4.
